This is an account of results in US9994913B2, “Methods and compositions for detecting and treating drug resistant AKT mutant” (Genentech, Inc., priority 2013, dated 2018).

One test has as its system Akt. Nature of the test: Western blot of AKT inhibitor dosed LNCaP cells, Akt phosphorylation and inhibitor binding (FIGS. 3-4). In kind it is cell-based. The settings on record: GDC-0068 resistant LNCaP cells. From the text: FIGS. 3-4 show Western blot analysis of AKT inhibitor dosed to cancer cells (LNCaP cells).
(In western blotting, separated proteins are transferred to a membrane and probed.)

The subject of the next test is LNCaP cells. Description: Dose response of AKT inhibitors in parental and AKT-inhibitor-resistant LNCaP cells (FIGS. 1-2, 6). It is filed as cell-based. The settings on record: LNCaP clones derived under increasing doses of GDC-0068. The text has this:
Resistant clones to both inhibitors were derived from populations of cancer cells treated with increasing doses of AKT inhibitor over time. For GDC-0068, cells that are ˜10× less sensitive were cloned. For MK2206, cells that are ˜40× less sensitive were cloned.
Akt inhibitor resistance in LNCaP cells remains dependent on the Akt pathway activity in cases of resistance to both GDC-0068 and MK-2206.
The in vitro potency of the combinations of the compound of Example 2 with certain specific chemotherapeutic agents was measured using the CellTiterGlo® Luminescent Cell Viability Assay, commercially available from Promega Corp., Madison, Wis. This homogeneous assay method is based on the recombinant expression of Coleoptera luciferase (U.S. Pat. Nos. 5,583,024; 5,674,713; 5,700,670) and determines the number of viable cells in culture based on quantitation of the ATP present, an indicator of metabolically active cells (Crouch et al (1993) J. Immunol. Meth. 160:81-88; U.S. Pat. No. 6,602,677). […]
The homogeneous “add-mix-measure” format results in cell lysis and generation of a luminescent signal proportional to the amount of ATP present. […] Viable cells are reflected in relative luminescence units (RLU). […] Data can be recorded by luminometer or CCD camera imaging device. The luminescence output is presented as relative light units (RLU), measured over time.

In the case of `CC(C)NC[C@@H](C(=O)N1CCN(c2ncnc3c2[C@H](C)C[C@H]3O)CC1)c1ccc(Cl)cc1` [GDC-0068, (S)-2-(4-chlorophenyl)-1-(4-((5R,7R)-7-hydroxy-5-methyl-6,7-dihydro-5H-cyclopenta [d]pyrimidin-4-yl)piperazin-1-yl)-3-(isopropylamino)propan-1-one], the “binding of the inhibitor in resistant cells” value in the test with Akt is “still bind to the inhibitor”. Further, in the test with LNCaP cells, the “fold less sensitive to GDC-0068, resistant clones vs parental” value is on record as about 10 ×.
